According to patent US20250197442A1, “Peptide Synthesis in Aqueous Solution” (priority 2023, published 2025):

Row | Compound | Fmoc-Gly content of the clear aqueous solution obtained (aqueous solution with 7.85% DMSO, Tween 80 to Fmoc-Gly approximately 4:1 (w/w)) | Fmoc-Phe content of the clear aqueous solution obtained (aqueous solution with 10.80% DMSO, Tween 80 to Fmoc-Phe approximately 8:1 (w/w))
1 | O=C(O)CNC(=O)OCC1c2ccccc2-c2ccccc21 [Fmoc-Gly, Fmoc-Glycine] | 1.07% | 
2 | O=C(N[C@@H](Cc1ccccc1)C(=O)O)OCC1c2ccccc2-c2ccccc21 [Fmoc-Phe, Fmoc-Phenylalanine] |  | 0.72%
